This data set relates to DENV2. To be noted: Table 1.

Take “3-[10,15,20-tris(3-hydroxyphenyl)-2,3,22,24-tetrahydroporphyrin-5-yl]phenol [Temoporfin]”: the “Therapeutic index (TI) (CC50/EC50)” value worked out at 558.

The values above are taken from patent US20230102223A1, “PHARMACEUTICAL COMPOSITIONS WITH ANTIFLAVIVIRAL ACTIVITY” (HEALTH RESEARCH, INC., priority 2016, published 2023).
